Target: Non-receptor tyrosine-protein kinase TYK2 (Homo sapiens, UniProt P29597)
Test: Inhibition of TYK2 (unknown origin)

Protein sequences, listed by entry. Tags and fused reporters are not part of them. Lines headed by an entry give the natural chain unless they say otherwise; changes in a name come on top.
UniProt P29597: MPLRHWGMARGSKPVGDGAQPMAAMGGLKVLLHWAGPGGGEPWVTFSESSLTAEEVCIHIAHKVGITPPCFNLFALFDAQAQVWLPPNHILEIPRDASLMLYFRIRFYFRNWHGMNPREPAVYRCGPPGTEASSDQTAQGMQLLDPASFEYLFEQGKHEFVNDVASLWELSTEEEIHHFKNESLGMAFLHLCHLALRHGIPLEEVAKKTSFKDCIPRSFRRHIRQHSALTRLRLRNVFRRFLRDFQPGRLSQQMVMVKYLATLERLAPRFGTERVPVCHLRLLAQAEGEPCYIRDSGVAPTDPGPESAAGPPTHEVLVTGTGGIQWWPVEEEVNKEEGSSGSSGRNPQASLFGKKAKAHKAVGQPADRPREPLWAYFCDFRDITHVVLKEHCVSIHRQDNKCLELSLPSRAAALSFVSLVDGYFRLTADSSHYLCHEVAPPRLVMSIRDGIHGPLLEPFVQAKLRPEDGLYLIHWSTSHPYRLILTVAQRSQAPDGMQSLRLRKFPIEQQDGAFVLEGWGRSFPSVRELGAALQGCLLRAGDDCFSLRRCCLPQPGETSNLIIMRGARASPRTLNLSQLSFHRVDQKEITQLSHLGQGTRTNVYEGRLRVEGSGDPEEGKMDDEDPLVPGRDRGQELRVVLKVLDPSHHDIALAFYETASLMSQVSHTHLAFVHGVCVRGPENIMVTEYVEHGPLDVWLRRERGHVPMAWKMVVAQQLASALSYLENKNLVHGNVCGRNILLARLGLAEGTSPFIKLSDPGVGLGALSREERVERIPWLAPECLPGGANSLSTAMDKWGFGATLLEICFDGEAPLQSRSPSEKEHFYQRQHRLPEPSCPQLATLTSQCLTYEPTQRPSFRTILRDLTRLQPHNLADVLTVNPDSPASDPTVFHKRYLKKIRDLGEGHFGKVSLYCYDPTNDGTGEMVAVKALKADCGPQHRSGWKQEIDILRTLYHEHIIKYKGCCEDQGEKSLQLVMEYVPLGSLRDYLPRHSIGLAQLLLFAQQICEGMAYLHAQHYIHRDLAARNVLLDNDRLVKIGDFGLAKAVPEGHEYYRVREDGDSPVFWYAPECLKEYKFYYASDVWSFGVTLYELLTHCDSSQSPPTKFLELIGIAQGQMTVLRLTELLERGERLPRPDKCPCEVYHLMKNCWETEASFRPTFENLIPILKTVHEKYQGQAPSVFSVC

Ki: 80 nM
Compound: N#CCCN[C@H]1CC[C@H](n2nnc3cnc4[nH]ccc4c32)CC1

Source: ChEMBL document CHEMBL2390952, “Novel triazolo-pyrrolopyridines as inhibitors of Janus kinase 1” (Bioorg Med Chem Lett, 2013)
